Measurements: ChEMBL document CHEMBL6153175, “Discovery of Isobenzofuran-1(3H)-one Derivatives as Selective TREK-1 Inhibitors with In Vitro and In Vivo Neuroprotective Effects” (J Med Chem, 2025)

Biological target: T1, Potassium channel subfamily K member 2 (Homo sapiens, UniProt O95069)
T1 sequence (O95069 whole entry): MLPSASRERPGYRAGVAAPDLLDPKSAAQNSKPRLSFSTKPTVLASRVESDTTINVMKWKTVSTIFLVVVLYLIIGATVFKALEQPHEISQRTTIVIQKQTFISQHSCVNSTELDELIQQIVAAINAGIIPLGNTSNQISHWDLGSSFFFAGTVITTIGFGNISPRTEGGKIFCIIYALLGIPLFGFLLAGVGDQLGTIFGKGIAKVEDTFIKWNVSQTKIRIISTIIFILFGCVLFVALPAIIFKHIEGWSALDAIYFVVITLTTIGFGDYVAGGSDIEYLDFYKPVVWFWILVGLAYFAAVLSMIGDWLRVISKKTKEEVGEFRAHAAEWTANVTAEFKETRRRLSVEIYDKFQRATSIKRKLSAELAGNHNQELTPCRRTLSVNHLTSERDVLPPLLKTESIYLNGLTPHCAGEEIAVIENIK
Assay: Inhibition of human TREK1 channel expressed in HEK293 cells cotransfected with EYFP at -80 mV holding potential by whole-cell patch clamp assay
Format: cell-based

IC50: 1800 nM
SMILES: OCCN1CCN(CC/C=C2/c3ccccc3Sc3ccc(C(F)(F)F)cc32)CC1 [Z-FLUPENTIXOL]
